Measurements as given in BindingDB's records for US10829480.

By UniProt entry, the sequences of proteins in these tests, tags left out. Where a name states a change or a piece, a line headed by the entry shows the natural chain unless it says otherwise.
UniProt P41146: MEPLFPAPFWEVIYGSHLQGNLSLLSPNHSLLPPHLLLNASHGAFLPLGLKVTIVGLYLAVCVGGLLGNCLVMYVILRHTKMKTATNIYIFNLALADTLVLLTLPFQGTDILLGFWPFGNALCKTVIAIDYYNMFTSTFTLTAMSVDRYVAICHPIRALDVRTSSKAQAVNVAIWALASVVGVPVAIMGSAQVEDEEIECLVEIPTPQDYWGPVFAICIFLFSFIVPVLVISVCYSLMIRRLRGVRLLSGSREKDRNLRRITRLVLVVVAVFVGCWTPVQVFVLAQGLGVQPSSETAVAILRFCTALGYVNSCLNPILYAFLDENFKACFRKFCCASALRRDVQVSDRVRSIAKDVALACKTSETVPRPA
UniProt P35372, whole entry, looked up: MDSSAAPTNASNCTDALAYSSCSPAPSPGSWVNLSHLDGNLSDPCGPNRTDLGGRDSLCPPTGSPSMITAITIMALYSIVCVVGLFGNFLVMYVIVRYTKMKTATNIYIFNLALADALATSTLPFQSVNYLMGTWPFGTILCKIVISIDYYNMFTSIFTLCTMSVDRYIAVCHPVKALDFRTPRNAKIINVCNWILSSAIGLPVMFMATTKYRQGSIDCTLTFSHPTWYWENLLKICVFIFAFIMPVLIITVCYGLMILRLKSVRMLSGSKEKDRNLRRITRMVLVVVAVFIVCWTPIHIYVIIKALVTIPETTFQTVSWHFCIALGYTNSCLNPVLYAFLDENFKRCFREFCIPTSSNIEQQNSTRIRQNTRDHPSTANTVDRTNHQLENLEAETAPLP

Assays:
[1] = target: Nociceptin receptor (Homo sapiens, UniProt P41146); assay: Receptor Binding Assay
[2] = target: Mu-type opioid receptor (Homo sapiens, UniProt P35372); assay: Receptor Binding Assay

SMILES | Ki [1] [nM] | Ki [2] [nM]
COc1ccc(CN2C[C@]3(CC[C@](c4ccccc4)(N(C)C)CC3)N(CCC(N)=O)C2=O)cc1 | 620 | 
CN[C@]1(c2ccccc2)CC[C@]2(CC1)CN(Cc1cn(CC(N)=O)nn1)C(=O)N2CC1(O)CCC1 | 100 | 295
CN(C)[C@]1(c2ccccc2)CC[C@]2(CC1)CN(Cc1cccnc1)C(=O)N2CC1CCC1 |  | 86.5
CN(C)[C@]1(c2ccccc2)CC[C@]2(CC1)CN(Cc1ccc(O)cc1)C(=O)N2CC1CCC1 | 1.8 | 73
COc1ccc(C#N)cc1CN1C[C@]2(CC[C@](c3ccccc3)(N(C)C)CC2)N(Cc2cc(C#N)ccc2OC)C1=O | 16.5 | 1540
COC(=O)CN1C(=O)N(Cc2ccc(OC)cc2)C[C@]12CC[C@](c1ccccc1)(N(C)C)CC2 | 21 | 1040
COc1ccc(CN2C[C@]3(CC[C@](c4ccccc4)(N(C)C)CC3)N(CC3COC3)C2=O)cc1 | 36 | 1040
COc1ccc(CN2C[C@]3(CC[C@](c4ccccc4)(N(C)C)CC3)N(CC[S+](C)[O-])C2=O)cc1 (stereo partly specified) | 630 | 
COc1ccc(CN2C[C@]3(CC[C@](c4ccccc4)(N(C)C)CC3)N(CC3CCOC3)C2=O)cc1 (stereo partly specified) | 22.5 | 
CN(C)[C@]1(c2ccccc2)CC[C@]2(CC1)CN(C(C)(C)c1ccccc1)C(=O)N2CC1(O)CCC1 | 8.15 | 235
